The text below walks through data of PubChem BioAssay AID1022 (Emory University Molecular Libraries Screening Center, 2008).

The chains behind the UniProt entries cited, without tags or fusion partners.
UniProt Q07820, whole entry: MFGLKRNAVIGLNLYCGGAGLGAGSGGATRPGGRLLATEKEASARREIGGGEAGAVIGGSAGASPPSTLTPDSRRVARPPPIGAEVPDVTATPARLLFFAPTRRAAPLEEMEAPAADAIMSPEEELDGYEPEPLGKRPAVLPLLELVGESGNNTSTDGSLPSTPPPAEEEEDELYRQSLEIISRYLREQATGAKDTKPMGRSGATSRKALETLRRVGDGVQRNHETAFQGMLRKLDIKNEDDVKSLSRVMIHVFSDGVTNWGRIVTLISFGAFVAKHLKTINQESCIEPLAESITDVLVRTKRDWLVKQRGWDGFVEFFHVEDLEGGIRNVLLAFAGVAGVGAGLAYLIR

Each structure is given as a SMILES string. The list shows a part of the results, in another mix than the full data. Some salts or complexes appear as unconnected parts, following the source record. Calls of active or inactive are those of the source.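 Rule for the calls: active = compounds that cut the protein-peptide binding signal by more than 50% relative to plate controls in a single-dose test; inactive = the rest.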

The target in this experiment is Induced myeloid leukemia cell differentiation protein Mcl-1 (Homo sapiens) (UniProt Q07820). Nature of the experiment: Mcl-1/Noxa binding inhibitors, primary screen, biochemical, TR-FRET, 1536-well (AID 1022).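 Note: His-tagged Mcl-1 with rhodamine Noxa BH3 peptide and terbium anti-His antibody; 0% = Mcl-1 plus Noxa peptide wells and 100% = peptide-only wells.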 To be noted: TR-FRET Mcl-1/Noxa peptide binding, 2 h; at 21.7 µM; active compounds read high.
With `COc1ccc2c(c1O)-c1c(O)c(OC)cc3c1[C@H](C2)[N+](C)(C)CC3.O=[N+]([O-])c1cc([N+](=O)[O-])c([O-])c([N+](=O)[O-])c1[O-]`, the inhibition was inactive: 25.3%.

In the case of `O=C(OCCN1CCN(CCOCc2ccccc2)CC1)C(O)(c1ccccc1)c1ccccc1`, the inhibition was inactive: 31.5%.

`O=C(OC1CN2CCC1CC2)c1ccc([N+](=O)[O-])cc1` (stereo unspecified): the inhibition is inactive: -0.02%.

As for `CC(C)c1ccc(OP(C)(=O)Nc2ccc(SC(F)(F)F)cc2)cc1` (stereo unspecified), the inhibition is inactive: -0.38%.

Turning to `CP(=O)(Nc1ccccc1F)Oc1ccccc1` (stereo unspecified), the inhibition is inactive: 14.8%.

On to `CCCCCOc1ccc(NP(C)(=O)Oc2ccc(Cl)cc2Cl)cc1` (stereo unspecified), for which the inhibition was inactive: 15.1%.

For the compound `CP(=O)(Nc1ccccc1)Oc1ccc(F)cc1` (stereo unspecified), the inhibition is inactive: 0.74%.

For the compound `CCN(CC)CCCOC(=O)C(O)(c1ccccc1)C1CCCCC1` (stereo unspecified), the inhibition is inactive: 15%.

On to `COc1ccc(OP(C)(=O)Nc2ccc(SC(F)(F)F)cc2)cc1` (stereo unspecified), for which the inhibition was inactive: 10.8%.

As to `CCOC(=O)c1ccc(NP(C)(=O)Oc2ccc(F)cc2)cc1` (stereo unspecified), the inhibition was inactive: 4.24%.

Turning to `O=[N+]([O-])c1cc([N+](=O)[O-])c(NCC2CCS(=O)(=O)C2)c([N+](=O)[O-])c1` (stereo unspecified), the inhibition is inactive: 12.9%.

`Cc1cc(-c2cccc3ccccc23)c(C)cn1.O=[N+]([O-])c1cc([N+](=O)[O-])c(O)c([N+](=O)[O-])c1`: the inhibition is inactive: -6.93%.

With `O=[N+]([O-])c1ccc(OP2(=O)COCCO2)cc1` (stereo unspecified), the inhibition was inactive: -11.9%.

For `COc1ccc(NP(C)(=O)Oc2ccccc2OC)cc1` (stereo unspecified), the inhibition was inactive: 20.7%.

For the compound `CN(C)CCOC(=O)C(O)(c1ccccc1)C1CCCCC1` (stereo unspecified), the inhibition is inactive: 1.68%.

As for `COc1ccc(OP(C)(=O)Nc2cccc(Br)c2)cc1` (stereo unspecified), the inhibition was inactive: 0.8%.

Regarding `Cc1ccccc1NP(C)(=O)Nc1ccccc1C`, the inhibition was inactive: 5.36%.

Regarding `CP(=O)(Nc1ccc2c(c1)OCCO2)Oc1ccccc1` (stereo unspecified), the inhibition was inactive: 5.21%.

Regarding `CCOP(C)(=S)SCC(=O)NC(C)(CC)C(=O)O` (stereo unspecified), the inhibition is inactive: 18.4%.

On to `CP(=O)(Nc1ccc(SC(F)(F)F)cc1)Oc1ccc(F)cc1` (stereo unspecified), for which the inhibition is inactive: -3.28%.

For the compound `CN(C)C(=O)c1c([N+](=O)[O-])cc([N+](=O)[O-])cc1[N+](=O)[O-]`, the inhibition was inactive: 7.06%.

For `CP(=O)(Nc1ccc(Cl)cc1)Oc1ccc(F)cc1` (stereo unspecified), the inhibition was inactive: 0.79%.

With `COc1ccccc1OP(C)(=O)Nc1ccccc1Br` (stereo unspecified), the inhibition was inactive: -10.2%.

As for `CC(C)(C)c1ccc(OP(C)(=O)O)cc1`, the inhibition is inactive: 5.32%.

Regarding `CCc1ccc(OP(C)(=O)Nc2cccnc2)cc1` (stereo unspecified), the inhibition was inactive: -2.12%.

For `CP(=O)(Oc1ccccc1)N1CCOC1=O` (stereo unspecified), the inhibition was inactive: 8.17%.
